Results: patent publication US20240285730A1, “COMPOSITIONS AND METHODS FOR THE TREATMENT OF GRAFT VERSUS HOST DISEASE” (VectivBio AG, priority 2021, published 2024)

Tested on: cytarabine-induced toxicity
Experiment: Apraglutide dose-response study with cytarabine chemotherapy
Type: in vivo, BALB/cJ female mice
Procedure: The apraglutide dose-dependent impact on the immunosuppressive effect of cytarabine was evaluated. The effect of cytarabine treatment on polymorphonuclear (PMN) cell count was determined (FIG. 20). […] In a separate study during which animals treated with cytarabine alone or in combination with apraglutide initiated before cytarabine (Days-4 to +12) were allowed to survive for 4 additional weeks.

## hGLP-2: unmodified hGLP-2, comparator given twice daily at a nominal dose of 0.60 mg/kg with cytarabine (HADGSFSDEMNTILDNLAARDFINWLIQTKITD; Glucagon-like peptide 2; UniProt P01275 146-178, looked up) [reference compound]
Cytarabine alone or combined with hGLP-2 or apraglutide
  polymorphonuclear (PMN) cell count: not reversed
Cytarabine combined with 0.11 mg/kg apraglutide or hGLP-2 (0.60 mg/kg twice daily)
  initial weight loss: did not decrease initial weight loss
